Our source for the MIC and FIC values is ChEMBL document CHEMBL5137134, “Developing the Natural Prenylflavone Artocarpin from Artocarpus hirsutus as a Potential Lead Targeting Pathogenic, Multidrug-Resistant Staphylococcus aureus, Persisters and Biofilms with No Detectable Resistance” (J Nat Prod, 2022).

The test system of assay [1] is Staphylococcus aureus. The following applies: ATCC 29213, time 16-18 hrs.
The subject of assay [2] is Staphylococcus aureus. The following applies: ATCC 29213, time 24.0 hrs.

GENTAMICIN had an MIC with Staphylococcus aureus [1] of 0.5 µg/mL. In addition, the FIC in the assay with Staphylococcus aureus [2] came out at 0.12.
